# Source: paper PMC9775191, “A Subset Screen of the Compounds Australia Scaffold Library Identifies 7-Acylaminodibenzoxazepinones as Potent and Selective Hits for Anti-Giardia Drug Discovery” (Biomedicines, 2022)
# Tested on: G. duodenalis BRIS/91/HEPU/1279
# Assay: Primary Giardia screen at 10 µM (live-cell imaging, automated counting)
# Type: cell-based, Giardia duodenalis
# Settings: first singlicate assay
# Experimental: Each compound was assessed in singlicate, at a final concentration of 10 μM (0.4 μL of a 5 mM stock; diluted to a final volume of 200 μL in culture medium; 0.2% DMSO). […] Plates were incubated in sealed chambers filled with 3% O2, 5% CO2 in N2 and growth was assessed at 24 and 48 h using live cell imaging and automated counting as previously described. Growth inhibition was calculated by subtracting media only background counts and determining percentage growth relative to vehicle (0.2% DMSO) controls. The reliability of these assays was assessed by calculating Z’ factors for each plate as previously described.
smiles,measurement,value
Cc1c(C(=O)NCCC2=CCCCC2)oc2c1-c1[nH]ncc1CC2 [SN00787159],% Inhibition n=1 48h,24.4%
